Results as given in PubChem BioAssay AID1209 (Sanford-Burnham Center for Chemical Genomics, 2008).
Only a part is listed here, and it is no random draw. Calls of active or inactive are those of the source. No stated cut-off is given here; in the data, active means inhibition above about 50%; inactive means the rest.

Chains of the proteins cited; added tags and fusions are not shown.
UniProt P34949, whole entry: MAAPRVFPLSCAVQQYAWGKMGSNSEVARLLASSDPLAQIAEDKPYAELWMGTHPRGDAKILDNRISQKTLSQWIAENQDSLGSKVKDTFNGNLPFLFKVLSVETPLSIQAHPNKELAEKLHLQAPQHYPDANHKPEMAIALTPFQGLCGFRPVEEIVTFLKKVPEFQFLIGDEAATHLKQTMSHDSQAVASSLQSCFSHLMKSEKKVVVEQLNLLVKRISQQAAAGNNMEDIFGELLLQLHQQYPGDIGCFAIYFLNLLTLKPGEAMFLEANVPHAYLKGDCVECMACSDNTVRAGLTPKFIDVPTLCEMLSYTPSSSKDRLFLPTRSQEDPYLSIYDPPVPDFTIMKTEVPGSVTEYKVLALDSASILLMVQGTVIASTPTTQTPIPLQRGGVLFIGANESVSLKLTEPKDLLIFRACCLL

Each compound was assayed against Mannose-6-phosphate isomerase (Homo sapiens) (UniProt P34949) (assay: MPI enzyme activity inhibition – biochemical, fluorescence intensity, coupled assay, primary screen (AID 1209;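 further: plate controls were DMSO vehicle for no effect and wells lacking substrate for full effect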)). Conditions: purified PMI enzyme, at 20 µM, active compounds read high.
For `CP(=O)(OCCOc1ccccc1)OCCOc1ccccc1`, the inhibition was inactive: -0.3%. In the case of `CN(C)CCOC(=O)C(O)(c1ccccc1)C1CCCC1` (stereo not given), the inhibition is reported as inactive: -9%. `COc1ccc(OP(C)(=O)Nc2ccccn2)cc1` (stereo not given) was tested, and the inhibition was inactive: 0.9%. With `Cc1c(NP(C)(=O)Oc2ccc(C(C)C)cc2)c(=O)n(-c2ccccc2)n1C` (stereo not given) the inhibition was inactive: -19.9%. With `O=[N+]([O-])c1cc([N+](=O)[O-])c(Nc2ccccn2)c([N+](=O)[O-])c1` the inhibition was inactive: 47%. With `CCc1ccc(OP(C)(=O)O)cc1` the inhibition was inactive: 3.7%. With `COc1ccccc1OP(C)(=O)Nc1ccc(C)cc1C` (stereo not given) the inhibition was inactive: 5.2%. `CP(=O)(Nc1ccccn1)Oc1ccccc1` (stereo not given) was tested, and the inhibition was inactive: 9.2%. `CCN(CC)CCCOC(=O)C(O)(c1ccccc1)c1ccccc1` was tested, and the inhibition was inactive: -9%. `Cc1cccc(C)c1OP(C)(N)=O` (stereo not given) was tested, and the inhibition was inactive: -51.3%. For `CC(C)(C)c1ccc(OP(C)(=O)Nc2ccc(SC(F)(F)F)cc2)cc1` (stereo not given), the inhibition was inactive: 22%. For `O=[N+]([O-])c1ccc2c(c1)C=Nc1ccccc1O2`, the inhibition was active: 71%. With `CCOC(=O)c1ccc(NP(C)(=O)Oc2ccccc2)cc1` (stereo not given) the inhibition was inactive: 3.4%. In the case of `Cc1ccc(NP(C)(=O)Oc2ccccc2)c(C)c1` (stereo not given), the inhibition is reported as inactive: 1.1%. In the case of `COc1ccccc1OP(C)(=O)Nc1ccc(C)cc1` (stereo not given), the inhibition is reported as inactive: 7.3%. In the case of `COc1ccc(OP(C)(=O)Nc2cccc(F)c2)cc1` (stereo not given), the inhibition is reported as inactive: 4.8%. With `COc1ccccc1OP(C)(=O)Nc1cc(Cl)ccc1C` (stereo not given) the inhibition was inactive: 4.3%. For `Cc1cc(C)cc(OP(C)(N)=O)c1` (stereo not given), the inhibition was inactive: 1.1%. With `CP(=S)(Nn1cnnc1)Oc1ccccc1` (stereo not given) the inhibition was inactive: 10.4%. In the case of `COc1ccccc1OP(C)(=O)Nc1ccccc1` (stereo not given), the inhibition is reported as inactive: -3.4%. In the case of `CP(=O)(Nc1ccccc1Br)Oc1ccccc1` (stereo not given), the inhibition is reported as inactive: -7.5%. `CP(=O)(Oc1ccccc1)OC(c1ccccc1)C(F)(F)F` (stereo not given) was tested, and the inhibition was inactive: -2.2%. In the case of `Cc1cccc(C)c1OP(C)(=O)Nc1ccc(SC(F)(F)F)cc1` (stereo not given), the inhibition is reported as inactive: 28.5%. For `Cc1cc(C)cc(OP(C)(=O)Nc2ccc(SC(F)(F)F)cc2)c1` (stereo not given), the inhibition was inactive: 17.3%. `CP(=O)(NC(=O)Nc1ccccc1)Oc1ccccc1` (stereo not given) was tested, and the inhibition was inactive: -2.2%. `CCOP(C)(=S)SCC(=O)NC(C)C(=O)O` (stereo not given) was tested, and the inhibition was inactive: 11.2%. `CCOC(=O)c1ccc(NP(C)(=O)Oc2ccc(OC)cc2)cc1` (stereo not given) was tested, and the inhibition was inactive: -2.6%. For `CP(=O)(Nc1ccccn1)Oc1ccc(Cl)cc1` (stereo not given), the inhibition was inactive: 2.7%. With `O=[N+]([O-])c1cc([N+](=O)[O-])c(-n2nnc3ccccc32)c([N+](=O)[O-])c1` the inhibition was inactive: -4%. With `Cc1nc2ccc3ccccc3c2s1.O=[N+]([O-])c1cc([N+](=O)[O-])c(O)c([N+](=O)[O-])c1` the inhibition was inactive: -3.5%. With `CN1CCCCC1COC(=O)C1(O)c2ccccc2CCc2ccccc21` (stereo not given) the inhibition was inactive: 9.9%. `COc1ccccc1OP(C)(=O)Nc1c(C)cccc1C` (stereo not given) was tested, and the inhibition was inactive: -10.1%. In the case of `CCCOc1ccc(NP(C)(=O)Oc2ccc(Cl)cc2)cc1` (stereo not given), the inhibition is reported as inactive: 7.1%. `CP(=O)(Nc1ccc(SC(F)(F)F)cc1)Oc1ccccc1` (stereo not given) was tested, and the inhibition was inactive: 6%. `CC1=NCCc2c1[nH]c1ccccc21.O=[N+]([O-])c1cc([N+](=O)[O-])c(O)c([N+](=O)[O-])c1` was tested, and the inhibition was inactive: 4.8%. `Cc1cc(C)cc(OP(C)(=O)Nc2ccc(C)cc2C)c1` (stereo not given) was tested, and the inhibition was inactive: 9%. For `CCOC(=O)c1ccc(NP(C)(=O)Oc2cc(C)cc(C)c2)cc1` (stereo not given), the inhibition was inactive: 4%. In the case of `Cc1cc(C)cc(OP(C)(=O)Nc2ccccn2)c1` (stereo not given), the inhibition is reported as inactive: 0.8%. In the case of `CP(=O)(Nc1cccc(Br)c1)Oc1ccccc1` (stereo not given), the inhibition is reported as inactive: 8.2%. `Cc1ccc(C)c(NP(C)(=O)Oc2ccccc2)c1` (stereo not given) was tested, and the inhibition was inactive: 1.7%.
